Data: US20070196865A1 (priority 2003, published 2007)

Target: delta opioid receptor (human) (UniProt P41143)
Assay: cell-based or functional assay

EC50 (Fgrains; multiplex pool of cells expressing β2AR, AT1AR, DOR): 11.2 nM
Substance: [D-Pen2,D-Pen5]-enkephalin (peptide)
